Results published in ChEMBL document CHEMBL1138990, “Diadenosine and diuridine poly(borano)phosphate analogues: synthesis, chemical and enzymatic stability, and activity at P2Y1 and P2Y2 receptors” (J Med Chem, 2006).
pEC50: −log10 of the molar value.

The chains behind the UniProt entries cited, without tags or fusion partners. Where a name states a change or a piece, a line headed by the entry shows the natural chain unless it says otherwise.
UniProt P47900: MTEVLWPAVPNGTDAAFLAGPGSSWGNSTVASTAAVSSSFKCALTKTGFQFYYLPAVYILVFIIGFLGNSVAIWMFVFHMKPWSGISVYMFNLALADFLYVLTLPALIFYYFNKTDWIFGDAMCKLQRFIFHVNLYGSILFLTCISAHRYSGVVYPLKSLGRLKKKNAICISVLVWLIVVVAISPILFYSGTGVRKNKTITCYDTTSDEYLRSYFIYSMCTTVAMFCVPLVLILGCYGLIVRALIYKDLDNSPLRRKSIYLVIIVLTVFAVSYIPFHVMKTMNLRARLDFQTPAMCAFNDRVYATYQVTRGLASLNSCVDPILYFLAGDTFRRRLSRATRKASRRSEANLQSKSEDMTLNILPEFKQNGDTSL

Target: P2Y purinoceptor 1 (Homo sapiens, UniProt P47900)
Assay: Activity against human P2Y1-GFP expressed in 1321N1 cells by intracellular calcium increase
Assay type: functional, cell-based
Summary of the method: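 hP2Y1-GFP (C-terminal tag) stably transfected into 1321N1 cells, which lack endogenous P2Y receptors; selected with 1 mg/mL G418. Cells grown in DMEM with 5% FCS under 10% CO2 at 37 °C on PLL-coated coverslips. Loaded with 2 µM Fura-2/AM for 30 min in NaHBS pH 7.4, then superfused at 37 °C with agonist for 1 min. Read-out is single-cell 340/380 nm fluorescence ratio; mean ± SD from ≥50 cells.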

CSc1nc(N)c2ncn([C@@H]3O[C@H](COP(=O)(O)OP(=O)(O)O)[C@@H](O)[C@H]3O)c2n1
pEC50: 7.96
